Apparent affinities of Ab-14 variants for a coronavirus HR2 peptide

Data: MIT Lincoln Laboratory AlphaSeq set, Engelhart et al. 2022, doi:10.1038/s41597-022-01779-4, as distributed in FLAb.

Binding partner: SARS-CoV-2 spike HR2 peptide, sequence PDVDLGDISGINAS.

Parent: Ab-14, a human scFv built as VH, three GGGGS repeats, VL. Only the CDRs of the light chain vary.
VH: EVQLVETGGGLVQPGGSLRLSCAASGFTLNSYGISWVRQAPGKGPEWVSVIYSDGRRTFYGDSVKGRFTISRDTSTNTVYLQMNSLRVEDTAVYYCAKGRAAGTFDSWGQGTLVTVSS
VL: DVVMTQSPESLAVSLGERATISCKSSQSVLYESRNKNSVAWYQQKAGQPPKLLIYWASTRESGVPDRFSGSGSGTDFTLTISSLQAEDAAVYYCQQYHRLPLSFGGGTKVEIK

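AAYL50 was designed without a model: most single CDR substitutions and a random sample of double and triple ones. The scFvs were displayed on barcoded MATa yeast, the peptide on MATalpha yeast. After mating in shaken culture at 30 °C for 16 h, diploids were selected and their barcode pairs sequenced. A regression on co-assayed BCL2-family reference pairs converts the normalised counts of each replicate to an apparent Kd. The assay was run in three technical replicates.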

Changes read parent residue, position, new residue, counted from the first residue of the VL shown. All variants listed here change N37 of the VL, counted from its first residue. Each Kd is an estimate from the mating assay, the geometric mean of the replicates in which the pair was seen; lower is stronger. Where no diploid with the target was found in any replicate, the entry reads "no signal": below detection, most likely a poor binder, though not proof of it. Nonspecific signal, from three strains lacking the peptide, appeared in 18% of pairings of library AAYL50, centred on 15 µM (5% of these signals below 970 nM); values are not corrected for it. The control count says in how many pairings with the empty strains this scFv gave a signal. Parent in this assay: reference entry 4.4 nM, copy in this library 48 nM.

The variant N37K/Q96N showed 6.4 µM (1 of 3 replicates; controls 0 of 9). The variant S28Y/N37R/P101Y showed 170 µM (1 of 3 replicates; controls 1 of 9). The variant K36L/N37V/Q96Y gave 2.1 µM (3 of 3 replicates; controls 2 of 9). With R34M/N37Y/Q95P the result was 17 nM (3 of 3 replicates; controls 3 of 9). The variant K24P/N37I/R99I gave 12 µM (1 of 3 replicates; controls 2 of 9). The variant N37G/E61S/L100M showed 23 nM (3 of 3 replicates; controls 4 of 9). The variant V29T/N37W/L102W showed 1.7 µM (1 of 3 replicates; controls 3 of 9). With N37F/T59E/H98Q the result was 7.9 nM (3 of 3 replicates; controls 2 of 9).

For R34E/N37D/R60P, the assay gave 15 nM (3 of 3 replicates; controls 2 of 9). The variant K36Q/N37R/S38E gave 62 nM (3 of 3 replicates; controls 5 of 9). For S25N/N35T/N37V, the assay gave no signal (0 of 3 replicates; controls 0 of 9). The variant K24S/N37D/R60W gave no signal (0 of 3 replicates; controls 1 of 9). The variant N37L/S62H/P101W showed no signal (0 of 3 replicates; controls 0 of 9). For N37K/Q96T/L102W, the assay gave 1.2 µM (3 of 3 replicates; controls 3 of 9). The variant L30S/N37M/R60Q gave 19 µM (1 of 3 replicates; controls 3 of 9). The variant N37C/V39G/E61Q showed 820 µM (1 of 3 replicates; controls 5 of 9).

For N37P/S38Q/V39F, the assay gave no signal (0 of 3 replicates; controls 1 of 9). The variant N37C/A57M/R99H gave 310 nM (3 of 3 replicates; controls 0 of 9). For R34C/N37T/L100T, the assay gave 180 µM (2 of 3 replicates; controls 9 of 9). With K24W/N37G/E61Y the result was no signal (0 of 3 replicates; controls 1 of 9). The variant N37W/P101R gave 1.8 µM (1 of 3 replicates; controls 2 of 9). The variant V29A/N37A/T59V showed 39 nM (3 of 3 replicates; controls 6 of 9). With S26W/S28H/N37E the result was no signal (0 of 3 replicates; controls 0 of 9). The variant E32S/N37R/S38M showed 110 µM (1 of 3 replicates; controls 4 of 9).

For N37F/R99I/L102W, the assay gave 56 µM (1 of 3 replicates; controls 2 of 9). The variant N35M/N37D/S103C gave 8.6 µM (3 of 3 replicates; controls 2 of 9). For S33C/N37T/S38K, the assay gave 470 µM (1 of 3 replicates; controls 1 of 9). With Q27D/E32P/N37I the result was 210 nM (1 of 3 replicates; controls 1 of 9). The variant L30E/N37T showed 23 nM (3 of 3 replicates; controls 1 of 9). The variant N37V/V39N/Q96T gave no signal (0 of 3 replicates; controls 1 of 9). With Y31E/N37P the result was 350 nM (1 of 3 replicates; controls 0 of 9). With Y31A/R34L/N37P the result was 360 nM (3 of 3 replicates; controls 6 of 9).

With N37M/Q95N/L100D the result was no signal (0 of 3 replicates; controls 0 of 9). With V29L/N37W/L100H the result was 35 nM (3 of 3 replicates; controls 4 of 9). With S33P/N37D/R60Q the result was 4.4 µM (2 of 3 replicates; controls 1 of 9). For N37H/E61M/Y97R, the assay gave 67 nM (3 of 3 replicates; controls 1 of 9). With V29Y/Y31F/N37V the result was 4.4 µM (3 of 3 replicates; controls 1 of 9). The variant S25E/N37A/S58C gave no signal (0 of 3 replicates; controls 0 of 9).

Picked from the list: the 3 lowest averages where every replicate gave a value.

{"changes": "N37F/T59E/H98Q", "Kd": "7.9 nM", "detected": "3/3", "control signals": "2/9"}
{"changes": "R34E/N37D/R60P", "Kd": "15 nM", "detected": "3/3", "control signals": "2/9"}
{"changes": "R34M/N37Y/Q95P", "Kd": "17 nM", "detected": "3/3", "control signals": "3/9"}